Laboratory results as given in ChEMBL document CHEMBL4229371, “Discovery of [1,2,4]triazolo[3,4-b][1,3,4]thiadiazole derivatives as novel, potent and selective c-Met kinase inhibitors: Synthesis, SAR study, and biological activity” (Eur J Med Chem, 2018).

Experiments:
[1] = species: Homo sapiens; assay: Selectivity for GST-tagged human c-MET kinase over GST-tagged human KDR
[2] = species: Homo sapiens; assay: Selectivity index, ratio of IC50 for GST-tagged human FLT3 to IC50 for GST-tagged human c-MET kinase
[3] = species: Homo sapiens; assay: Selectivity for GST-tagged human c-MET kinase over GST-tagged human c-KIT
[4] = species: Homo sapiens; assay: Selectivity for GST-tagged human c-MET kinase over GST-tagged human ABL1
[5] = species: Homo sapiens; assay: Selectivity for GST-tagged human c-MET kinase over GST-tagged human FLT1
[6] = species: Homo sapiens; assay: Selectivity for GST-tagged human c-MET kinase over GST-tagged human PDGFRalpha
[7] = species: Homo sapiens; assay: Selectivity for GST-tagged human c-MET kinase over GST-tagged human RON
[8] = species: Homo sapiens; assay: Selectivity for GST-tagged human c-MET kinase over GST-tagged human TIE2
[9] = species: Homo sapiens; assay: Selectivity for GST-tagged human c-MET kinase over GST-tagged human TRKA
[10] = species: Homo sapiens; assay: Selectivity for GST-tagged human c-MET kinase over GST-tagged human ALK
[11] = species: Homo sapiens; assay: Selectivity for GST-tagged human c-MET kinase over GST-tagged human TRKB
[12] = species: Homo sapiens; assay: Selectivity for GST-tagged human c-MET kinase over GST-tagged human EGFR
[13] = species: Homo sapiens; assay: Selectivity for GST-tagged human c-MET kinase over GST-tagged human LCK
[14] = species: Homo sapiens; assay: Selectivity for GST-tagged human c-MET kinase over GST-tagged human FGFR1
[15] = species: Homo sapiens; assay: Selectivity for GST-tagged human c-MET kinase over GST-tagged human RET
[16] = species: Homo sapiens; assay: Selectivity for GST-tagged human c-MET kinase over GST-tagged human AXL

Selectivity ratio [1]: > 2500
Ratio IC50 [2]: > 650
Selectivity ratio [3]: > 2500
Selectivity ratio [4]: > 2500
Selectivity ratio [5]: > 2500
Selectivity ratio [6]: > 2500
Selectivity ratio [7]: > 2500
Selectivity ratio [8]: > 2500
Selectivity ratio [9]: > 2500
Selectivity ratio [10]: > 2500
Selectivity ratio [11]: > 2500
Selectivity ratio [12]: > 2500
Selectivity ratio [13]: > 2500
Selectivity ratio [14]: > 2500
Selectivity ratio [15]: > 2500
Selectivity ratio [16]: > 2500
SMILES: COc1ccc2c(OCc3nnc4sc(-c5cnn(C)c5)nn34)ccnc2c1
